# Experiments:
# Sequences of proteins named here, by UniProt entry; tags and fusion partners are left off.
# UniProt P21453, whole entry: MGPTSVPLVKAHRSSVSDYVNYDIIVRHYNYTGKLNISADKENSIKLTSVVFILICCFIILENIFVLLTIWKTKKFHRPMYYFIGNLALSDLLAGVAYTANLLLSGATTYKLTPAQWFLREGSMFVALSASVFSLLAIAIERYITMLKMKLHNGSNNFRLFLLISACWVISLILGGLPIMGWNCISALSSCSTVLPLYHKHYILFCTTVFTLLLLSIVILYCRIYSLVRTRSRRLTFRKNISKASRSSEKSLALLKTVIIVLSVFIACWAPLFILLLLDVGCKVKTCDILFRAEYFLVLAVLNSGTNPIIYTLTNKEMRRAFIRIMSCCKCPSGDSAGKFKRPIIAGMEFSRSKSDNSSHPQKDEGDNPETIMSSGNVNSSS
# UniProt Q99500, whole entry, species assumed: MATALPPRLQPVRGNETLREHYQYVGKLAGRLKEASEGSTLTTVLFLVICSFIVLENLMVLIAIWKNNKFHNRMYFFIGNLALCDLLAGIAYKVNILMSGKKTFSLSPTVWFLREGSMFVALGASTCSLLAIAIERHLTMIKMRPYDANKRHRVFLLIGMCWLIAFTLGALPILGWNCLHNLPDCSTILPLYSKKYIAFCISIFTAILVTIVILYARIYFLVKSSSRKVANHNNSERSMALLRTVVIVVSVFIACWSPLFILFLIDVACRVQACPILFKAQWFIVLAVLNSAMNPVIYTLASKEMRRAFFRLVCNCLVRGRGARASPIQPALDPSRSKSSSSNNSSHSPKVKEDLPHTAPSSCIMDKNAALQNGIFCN
# S1PR1 = molecular target: T1, S1PR1 (Homo sapiens, UniProt P21453); assay: Agonistic activity test on S1P receptors, FLIPR, CHO-K1/Ga15/EDG1 cells; type: cell-based; conditions: FLIPR agonist mode
# T1 construct: host or cells: CHO-K1 co-expressing Ga15
# Protocol: (§1) Instrument: FLIPR™ TETRA (Molecular Device)
# Experimental materials: CHO-K1/Ga15/EDG1 cells constructed by GenScript autonomously.
# (§2) Sample processing: Before the experiment, the working solution with the corresponding concentration was prepared by diluting with GPCR dilution buffer.
# (§3) After 18-20 hours, the cell culture plat was taken out and added with dye working solution, and then the plate was placed in a 37° C./5% CO2 incubator for 1 hour, and finally equilibrated at room temperature for 15 minutes. Positive agonist working solution was added, and RFU values were detected and recorded. […] The positive agonist working fluid was added to the cell culture plate at the 21st second. […]
# (§4) Data processing: Raw data were obtained via ScreenWorks (version 3.1) and saved as *FMD files on the Kingsray computer network system. Data were collected and analyzed using Excel and GraphPad Prism 6 software programs. For each well, the average fluorescence intensity value from 1 to 20 seconds was used as the baseline, and the maximum fluorescence intensity value from 21 to 120 seconds minus the minimum fluorescence intensity value from 21 to 120 seconds was the relative fluorescence intensity value (ARFU), from which the percentage activation or inhibition can be calculated based on the following equation. […]
# S1PR3 = S1PR3 (Homo sapiens, UniProt Q99500); assay: Agonistic activity test on S1P receptors, FLIPR; type: cell-based; conditions: FLIPR agonist mode
# Protocol: as §1, §2, §3, §4
# The data was analyzed using GraphPad Prism 6 with a four-parameter equation to calculate the EC50 and IC50 values. […]
substance,measurement,setting,value
FTY720-P [reference compound],EC50,S1PR1,39.3 nM
same,EC50,S1PR3,4520 nM

# Reference: patent publication US20240208954A1, “OXADIAZOLE COMPOUND, PREPARATION METHOD THEREFOR, PHARMACEUTICAL COMPOSITION AND USE THEREOF” (SHANGHAI INSTITUTE OF MATERIA MEDICA, CHINESE ACADEMY OF …, priority 2020, published 2024)
